{"source": "patent US11026942B2", "about": "“Agent for preventing and/or treating Alzheimer's disease” (KYOTO UNIVERSITY, priority 2015, dated 2021)", "tested_on": "Aβ42/40 ratio", "assay": "Aβ42/40 ratio in FAD1 iPS cell-derived nerve cells (primary/secondary screening, dose dependency)", "type": "cell-based, human", "details": "secondary screening", "data": [{"smiles": "O=C(O)COCCN1CCN([C@H](c2ccccc2)c2ccc(Cl)cc2)CC1", "note": "[compound 30, LEVOCETIRIZINE]", "values": [{"measurement": "Ratio Aβ42/40", "result": 0.85}]}]}
